Reference: patent publication US20110118298A1, “COMPOSITIONS, KITS, AND METHODS FOR IDENTIFICATION, ASSESSMENT, PREVENTION, AND THERAPY OF CANCER” (INFINITY PHARMACEUTICALS, INC., priority 2009, published 2011)

Test system: EGFR mutant tumors with T790M resistant clones
Assay: In vivo model of emerging EGFR TKI resistance (T790M)
Details: day 45

COc1cc2ncnc(Nc3ccc(F)c(Cl)c3)c2cc1OCCCN1CCOCC1 [gefitinib, reference compound]
animals still on study: had been removed due to tumor progression
